Molecular target: human Cdc7/human ASK complex protein (Homo sapiens (Human), UniProt O00311)
Test: Inhibitory effect on Cdc7 protein kinase (MSA assay kit)
Format: biochemical
Settings: FITC-labeled MCM2 peptide substrate, reaction 5 hours at room temperature, read-out: Test Example 1 Cdc7 IC50 value
Description: [Inhibitory Effect on Cdc7 Protein Kinase]
Measurement of kinase activity was carried out using an MSA assay kit (QuickScout Screening Assist™ Kit, Carna Biosciences, Inc.).
Assay buffer (20 mM HEPES, 0.01% Triton X-100™, 2 mM dithiothreitol, pH 7.5) was used to prepare a substrate mixture solution comprising 4 μM of a kinase-reaction substrate (FITC-labeled MCM2 peptide), 40 mM MgCl2, and 20 μM ATP.
The enzyme supplied in the kit (human Cdc7/human ASK complex protein) was diluted in the assay buffer so as to be at 7 nM, thereby preparing an enzyme solution. […]
The kinase reaction was performed in wells of a polypropylene 384-well plate in which 5 μl of each of the drug solutions or of a solvent (assay buffer containing 4% DMSO), 5 μl of the substrate mixture solution, and 10 μl of the enzyme solution were mixed. […] The percent inhibition of each reaction was determined using a LabChip EZ Reader II system (manufactured by Caliper Life Sciences), according to the protocol provided with the assay kit. […]
The IC50 value of a tested compound was calculated by regression analysis of the percent inhibition values versus the (logarithmic) concentrations of the tested compound.

Amino acid sequences for entries named in this document (tags omitted). A change or cut given only in a name is not applied to a line headed by its entry.
UniProt O00311: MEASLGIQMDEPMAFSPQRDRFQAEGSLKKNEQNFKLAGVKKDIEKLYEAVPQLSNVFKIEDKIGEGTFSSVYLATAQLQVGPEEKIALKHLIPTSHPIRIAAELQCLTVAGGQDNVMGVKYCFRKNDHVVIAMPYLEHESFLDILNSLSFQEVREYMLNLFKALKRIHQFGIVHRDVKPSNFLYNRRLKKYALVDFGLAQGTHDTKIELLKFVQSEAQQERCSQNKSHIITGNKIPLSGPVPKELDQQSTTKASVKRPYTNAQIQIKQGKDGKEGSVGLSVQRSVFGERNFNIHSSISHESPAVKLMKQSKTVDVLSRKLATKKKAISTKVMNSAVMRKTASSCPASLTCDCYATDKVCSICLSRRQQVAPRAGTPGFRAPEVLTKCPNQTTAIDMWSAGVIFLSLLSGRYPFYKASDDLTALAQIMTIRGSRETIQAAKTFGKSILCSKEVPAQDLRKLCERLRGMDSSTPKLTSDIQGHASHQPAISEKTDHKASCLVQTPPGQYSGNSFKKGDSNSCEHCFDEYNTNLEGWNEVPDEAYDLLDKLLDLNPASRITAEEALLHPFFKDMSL

IC50: 6 nM
SMILES: CCOC(=O)C1=C(N2CCCCCC2)O/C(=C\c2c[nH]c3ncccc23)C1=O [Example 63]

Reference: US8742113B2, “Furanone derivative” (SBI Biotech Co., Ltd., priority 2011, dated 2014)
